Tests used:
CB1 receptor [1] = biological target: T1, CB1 receptor (Mus musculus, UniProt P47746); test: Agonist-stimulated [35S]GTPγS binding in mouse cerebellar membranes; format: biochemical, ICR mice; settings: Potency (EC50 ± SEM) nM, cerebellum
CB1 receptor [2] = biological target: T1, CB1 receptor; test: [3H]CP55,940 displacement binding in mouse cerebellar membranes; parameters: species or system ICR mice; settings: CB1 Binding Affinity (Ki in nM), female mice, cerebellum; N = 4 / value

Amino acid sequences for entries named in this document (tags omitted).
UniProt P47746, whole entry: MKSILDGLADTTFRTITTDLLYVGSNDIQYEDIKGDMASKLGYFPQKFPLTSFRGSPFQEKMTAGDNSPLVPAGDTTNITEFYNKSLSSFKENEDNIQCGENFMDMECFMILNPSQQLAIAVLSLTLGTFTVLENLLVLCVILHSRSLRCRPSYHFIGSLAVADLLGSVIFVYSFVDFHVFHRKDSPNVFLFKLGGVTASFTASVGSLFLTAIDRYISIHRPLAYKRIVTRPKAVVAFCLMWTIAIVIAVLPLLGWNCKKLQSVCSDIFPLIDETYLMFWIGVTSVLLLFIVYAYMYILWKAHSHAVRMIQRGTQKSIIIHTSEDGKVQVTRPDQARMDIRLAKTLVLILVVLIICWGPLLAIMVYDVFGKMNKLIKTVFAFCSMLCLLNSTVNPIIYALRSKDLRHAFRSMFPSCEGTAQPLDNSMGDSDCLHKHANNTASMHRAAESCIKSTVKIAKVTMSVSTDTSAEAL

For CCCCCc1cc(O)c2c(c1)OC(C)(C)[C@@H]1CCC(C)=C[C@@H]21 [THC, Δ^9-tetrahydrocanabinol], the EC50 (CB1 receptor [1]; female mice) was 68.2 nM, the EC50 (CB1 receptor [1]; male mice) was 64.6 nM and the Ki (CB1 receptor [2]) was 37.5 nM.
